Measurements reported in patent US20130052259A1, “LIPOSOMES COMPRISING AMPHIPATHIC DRUGS AND METHOD FOR THEIR PREPARATION” (priority 2010, published 2013).

Tests used:
[1] = Physicochemical properties of VCR and TPT
Text: The need to develop one liposome that includes two drugs at a specific predefined mole ratio required optimization of the loading conditions and “crosstalk” with the drugs. For this, physiochemical characterization of the two drugs is required.

[2] = Remote loading of drugs into nSSL (loading efficiency); format: physicochemical; details: saline pH 6, sulfate counter ion
Procedure: The remote loading was achieved by incubation of the liposomes with the drugs for 30 min at 55° C., then cooling to 4° C., followed by dialyzing against 5% dextrose to remove ammonia and residual unloaded drug. Alternatively, in some cases, unloaded drug and ammonia (released during the loading process) were removed using cation exchange resin Dowex 50WX-4 (G. Haran, R. Cohen, L. K. Bar, Y. Barenholz, Transmembrane ammonium sulfate gradients in liposomes produce efficient and stable entrapment of amphipathic weak bases. Biochim. Biophys. Acta 1151(2) (1993) 201-215; G. Storm, L. van Bloois, M. Brouwer, D. J. Crommelin, The interaction of cytostatic drugs with adsorbents in aqueous media. The potential implications for liposome preparation. Biochim. Biophys. Acta 818(3) (1985) 343-351). At times, the co-encapsulated nSSL with VCR and TPT is referred to by the abbreviation “LipoViTo”.
Quantification was performed using HPLC with UV and fluorescence detectors for VCR and TPT, respectively, as described by Zucker et al. (D. Zucker, et al. 2009 ibid.).
External medium: saline at pH 5.7;
Gradient forming salt: ammonium sulfate,
Loading duration: 30 min at 55° C.

[3] = Maximum tolerated dose (MTD); format: in vivo, mice; details: ≦15% body weight loss nadir lasting ≦2 days
Procedure: The MTD is determined in clinical trials by testing increasing doses on different groups of people until the highest dose with acceptable side effects is found. For each drug, the MTD as determined in clinical trials is then available via publicly available sources such as SciFinder which is the On Line search engine of The American Chemical Society for various information including MTD (in animals as well as in humans). When referring to MTD in cancer treatment, the MTD values may be defined as survival in the absence of significant tumor burden with ≦15% body weight loss nadir lasting ≦2 days. In this context, the “MTD ratio” between two drugs is the ratio between the MTD determined for each drug. For instance, when referring to topotecan (TPT, topotecan hydrochloride, MW 421.45) and vincristine (VCR, vincristine sulfate MW 923.04), being two amphipathic weak bases, the MTD is respectively, 5 mg/kg and 1.5 mg/kg, and the TPT/VCR mole ratio of 7.3.
Maximum tolerated dose (MTD) values were defined as survival in the absence of significant tumor burden with ≦15% body weight loss nadir lasting ≦2 days. Tumor volume, survival, and body weight were monitored 2-3 times per week.

Substance: Topotecan [Topotecan (TPT)]
- logP [1]: 1.39
- logD ([1]; pH 6): −0.27
- logD ([1]; pH 8): 1.00
- optimal drug-to-PL mole ratio for highest encapsulation efficiency [2]: ~0.220
- MTD [3]: 5 mg/kg
